These results are taken from ChEMBL document CHEMBL1131327, “Selective Pneumocystis carinii dihydrofolate reductase inhibitors: design, synthesis, and biological evaluation of new 2,4-diamino-5-substituted-furo[2,3-d]pyrimidines” (J Med Chem, 1998).

The target in experiment [1] is T1, Dihydrofolate reductase (Pneumocystis carinii, UniProt P16184).
T1 sequence (P16184 whole entry): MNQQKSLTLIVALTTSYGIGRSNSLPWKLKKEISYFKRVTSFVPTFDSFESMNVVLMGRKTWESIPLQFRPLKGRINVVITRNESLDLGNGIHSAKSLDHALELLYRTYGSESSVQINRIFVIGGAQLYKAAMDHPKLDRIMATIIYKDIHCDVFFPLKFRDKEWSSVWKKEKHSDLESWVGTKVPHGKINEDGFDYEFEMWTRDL

Experiment [2] concerns the target T2, Dihydrofolate reductase (Rattus norvegicus, UniProt Q920D2).
T2 sequence (Q920D2 whole entry): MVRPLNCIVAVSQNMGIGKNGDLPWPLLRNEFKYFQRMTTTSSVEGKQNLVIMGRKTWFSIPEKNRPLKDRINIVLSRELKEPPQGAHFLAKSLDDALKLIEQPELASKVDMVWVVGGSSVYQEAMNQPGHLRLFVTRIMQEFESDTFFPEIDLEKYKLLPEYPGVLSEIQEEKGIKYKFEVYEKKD

In experiment [3] the target is T3, Bifunctional dihydrofolate reductase-thymidylate synthase (Toxoplasma gondii, UniProt Q07422).
T3 sequence (Q07422 whole entry): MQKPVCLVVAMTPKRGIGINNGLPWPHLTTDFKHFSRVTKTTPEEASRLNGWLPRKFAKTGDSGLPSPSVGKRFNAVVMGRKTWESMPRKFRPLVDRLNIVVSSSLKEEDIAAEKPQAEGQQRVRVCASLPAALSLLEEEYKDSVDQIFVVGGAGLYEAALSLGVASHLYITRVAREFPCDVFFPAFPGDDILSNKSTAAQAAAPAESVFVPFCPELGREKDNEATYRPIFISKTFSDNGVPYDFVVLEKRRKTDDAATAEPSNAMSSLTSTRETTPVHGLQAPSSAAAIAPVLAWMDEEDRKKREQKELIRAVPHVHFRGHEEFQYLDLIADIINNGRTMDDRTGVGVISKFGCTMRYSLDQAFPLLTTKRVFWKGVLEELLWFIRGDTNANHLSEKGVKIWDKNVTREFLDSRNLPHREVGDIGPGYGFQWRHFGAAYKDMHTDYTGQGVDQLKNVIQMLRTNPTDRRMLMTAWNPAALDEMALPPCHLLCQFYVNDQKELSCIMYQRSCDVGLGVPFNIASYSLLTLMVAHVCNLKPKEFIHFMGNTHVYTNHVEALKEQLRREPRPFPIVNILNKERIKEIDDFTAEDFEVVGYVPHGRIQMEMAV

As usually defined, the IC50 is the midpoint of a concentration-inhibition curve. With `Nc1nc(N)c2c(CNc3ccc(Oc4ccccc4)cc3)coc2n1`, the values for the IC50 at Dihydrofolate reductase [1] and at Dihydrofolate reductase [2] were 8.1 µM and 16.2 µM, respectively. `Nc1nc(N)c2c(CNc3cccc4ccccc34)coc2n1` returned an IC50 against Dihydrofolate reductase [2] of 12 µM. For `CN(Cc1coc2nc(N)nc(N)c12)c1cc(Cl)c(Cl)c(Cl)c1`, the IC50 against Dihydrofolate reductase [2] is 34.3 µM; in experiment [3], 21.5 µM.
